# Apparent affinities of Ab-95 variants for a coronavirus HR2 peptide

Target peptide (SARS-CoV-2 spike, HR2 region): PDVDLGDISGINAS

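The parent was found by panning a naive human phage display library on the peptide. The library (AAYL52) carries one to three amino acid substitutions per variant, with no insertions or deletions. AlphaSeq pools MATa yeast showing the antibodies with MATalpha yeast showing the peptide. Pairs that bind mate more often; barcode pairs of the diploids are counted by sequencing. A regression on co-assayed BCL2-family reference pairs converts the normalised counts of each replicate to an apparent Kd. Mating was done three times.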

Parent: Ab-95, a human scFv built as VH, the linker GGGGSGGGGSGGGGS, VL. Only the CDRs of the light chain vary.
VH: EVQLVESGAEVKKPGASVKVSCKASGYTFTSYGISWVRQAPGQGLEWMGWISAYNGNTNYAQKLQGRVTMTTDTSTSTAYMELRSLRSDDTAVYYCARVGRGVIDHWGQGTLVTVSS
VL: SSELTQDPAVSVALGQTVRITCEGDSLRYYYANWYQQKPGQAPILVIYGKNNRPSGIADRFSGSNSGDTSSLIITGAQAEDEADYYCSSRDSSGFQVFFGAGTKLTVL

Substitutions are numbered in sequence along the VL above, starting at 1 (not Kabat).
Scale: log10 of Kd in nM, estimated from mating counts; low values are strong binders.
"ND" means that the variant was in the library but no mating with the target was seen in that replicate; the authors take this as a sign of poor binding, and no number exists.
For reference, the parent read 2.31 as the reference entry and 2.25 as a member of this library.
Empty control strains, which show no peptide, gave a signal in 28% of pairings with library AAYL52; the median was 3.91 and 95% of these signals were weaker than 2.90. No background was subtracted. Also given: how often the same scFv was detected with the empty control strains, with their mean in brackets.

changes	replicates, log10 nM	signal with controls
Y29R/N52E/P54R	2.50 2.46 2.76	1 of 9 (3.38)
Y30D/N33K/S89M	1.81 2.03 1.40	1 of 9 (3.58)
S26P/G49P/V97D	ND 4.16 ND	0 of 9
S26V/S89V	2.84 3.63 3.86	4 of 9 (3.52)
D25C/L27A/Y29N	2.63 2.75 2.44	3 of 9 (3.69)
S55C/D91F	4.82 5.68 ND	5 of 9 (4.21)
L27M/D91N	2.42 2.79 2.50	2 of 9 (3.98)
L27Y/R28H/K50L	ND ND ND	1 of 9 (4.22)
E23I/R28E/D91E	3.21 2.92 ND	4 of 9 (3.87)
G49S/F98M	2.78 3.55 ND	1 of 9 (3.07)
N33H/S55G/G94S	5.13 3.38 ND	2 of 9 (4.26)
Y29C/N51G/G94R	ND 3.55 3.49	3 of 9 (3.78)
N33M/N51R/Q96N	3.64 3.13 ND	2 of 9 (3.91)
Y31A/F95L	2.12 1.86 1.74	2 of 9 (4.45)
L27G/R90P/F95A	ND ND ND	0 of 9
E23M/S26I/P54F	3.50 4.17 ND	5 of 9 (4.07)
N52E/S88L/V97G	3.98 2.23 2.49	2 of 9 (3.55)
L27D/R90W/S92K	ND ND 3.38	2 of 9 (3.82)
G49K/R53T/V97L	3.28 ND 3.86	3 of 9 (3.79)
R53F/D91I/F95M	3.13 ND ND	3 of 9 (4.34)
E23V/N52W/R90W	3.40 2.77 2.53	3 of 9 (4.42)
L27V/Y31E/P54N	2.85 1.95 1.71	3 of 9 (4.11)

Second part, the sequence after the result:

replicates, log10 nM	signal with controls	changes
ND 4.42 3.61	2 of 9 (3.34)	G24H/N52W/F95N
ND ND ND	3 of 9 (3.61)	Y30Q/G49P/N52P
3.43 4.08 ND	2 of 9 (3.92)	S26L/K50H/F95A
4.77 ND 3.92	2 of 9 (4.08)	N33A/R53E/S92R
ND 4.32 3.73	3 of 9 (4.41)	G24H/D25W/K50I
ND 3.02 ND	1 of 9 (3.60)	K50Q/N51V/Q96E
ND 3.66 ND	0 of 9	D91E/S92N/Q96L
2.82 2.39 2.45	2 of 9 (4.23)	N52E/R90P/D91L
2.54 2.36 3.09	3 of 9 (3.79)	D25E/Y31T/R53S
ND ND ND	1 of 9 (3.49)	N51R/S55C/R90E
3.95 3.44 3.67	4 of 9 (4.60)	D25K/S89P/F98K
ND ND 4.10	2 of 9 (3.25)	S26N/L27Y/R28A
3.59 3.86 3.09	8 of 9 (4.10)	R28I/Y29P/V97A
3.50 3.83 ND	0 of 9	E23K/S26Q/V97I
4.36 4.00 ND	1 of 9 (4.47)	G24L/N33D/P54C
3.67 ND ND	1 of 9 (3.35)	S55Q/R90Q/F95M
ND 3.40 ND	1 of 9 (4.33)	N51V/S55F/S88G
2.31 2.37 2.31	4 of 9 (3.80)	S26W/Y31G/S89M
ND ND ND	0 of 9	G24R/G49R/S89P
3.53 ND ND	3 of 9 (5.11)	N33Q/R90V/G94T
2.62 2.80 2.75	4 of 9 (3.72)	S55H/V97E
3.70 ND ND	2 of 9 (3.00)	S26E/L27N/N52P

Again, the first 3 entries without any signal:

changes,"replicates, log10 nM",signal with controls
L27Y/R28H/K50L,ND ND ND,1 of 9 (4.22)
L27G/R90P/F95A,ND ND ND,0 of 9
Y30Q/G49P/N52P,ND ND ND,3 of 9 (3.61)

The measurements come from Engelhart et al. 2022 (doi:10.1038/s41597-022-01779-4) through the FLAb antibody collection.